According to patent publication US5786517A, “Metal-ligand complex catalyzed processes” (Union Carbide Chemicals & Plastics Technology Corporation, priority 1996, dated 1998):

Experiment: Stability of Ligand F in rhodium-containing butyraldehyde solution by HPLC (Examples 2-4)
Conditions: after either 24 or 72 hours; 0.018 grams phosphorous acid and 0.0337 grams benzimidazole added

## CC(C)(C)c1cc(-c2cc(C(C)(C)C)cc(C(C)(C)C)c2Op2oc3ccccc3c3ccccc3o2)c(Op2oc3ccccc3c3ccccc3o2)c(C(C)(C)C)c1 [Ligand F]
  decomposition of Ligand F: No decomposition
